Test results published in patent publication US20090286252A1 (NEW YORK UNIVERSITY, published 2009).

Columns and labels:
LexA alone [1] = target: T1, LexA alone (UniProt P0A7C2 1-202); experiment: yeast two-hybrid, β-galactosidase (FIG. 1)
T1 construct: Negative control bait; also called bait LexA alone (negative control)
T1 sequence (looked up): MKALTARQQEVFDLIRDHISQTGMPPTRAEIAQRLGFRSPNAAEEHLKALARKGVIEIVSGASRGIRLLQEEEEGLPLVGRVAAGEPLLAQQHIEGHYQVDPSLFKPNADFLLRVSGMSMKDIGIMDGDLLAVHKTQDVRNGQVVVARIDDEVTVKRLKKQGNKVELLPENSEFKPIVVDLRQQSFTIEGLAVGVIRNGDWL
Method: (§1) The following receptor baits were used: LexA-cTRα LBD, LexA-hTRβ LBD, LexA-hRARα LBD, LexA-hRXRα LBD, and LexA-hGR LBD. […] Yeast cells harboring appropriate plasmids were grown in selective media with Gal/Raf in the presence or absence of cognate ligand (1 μM T3 for TR, all trans or 9-cis RA for RAR, 9-cis RA for RXR, and 10 μM deoxycorticosterone for GR) overnight before β-galactosidase activity was assayed using o-Nitrophenyl β-D-Galactopyranoside as the substrate. β-galactosidase units are expressed as (O.D. 420 nm×1000)/(minutes of incubation×O.D. 600 nm of yeast suspension).

LexA-cTRα LBD = target: T2, LexA-cTRα LBD (chicken, UniProt P0A7C2 1-202; P04625 120-408, limits assumed); experiment: cell-based or functional assay
T2 sequence (looked up): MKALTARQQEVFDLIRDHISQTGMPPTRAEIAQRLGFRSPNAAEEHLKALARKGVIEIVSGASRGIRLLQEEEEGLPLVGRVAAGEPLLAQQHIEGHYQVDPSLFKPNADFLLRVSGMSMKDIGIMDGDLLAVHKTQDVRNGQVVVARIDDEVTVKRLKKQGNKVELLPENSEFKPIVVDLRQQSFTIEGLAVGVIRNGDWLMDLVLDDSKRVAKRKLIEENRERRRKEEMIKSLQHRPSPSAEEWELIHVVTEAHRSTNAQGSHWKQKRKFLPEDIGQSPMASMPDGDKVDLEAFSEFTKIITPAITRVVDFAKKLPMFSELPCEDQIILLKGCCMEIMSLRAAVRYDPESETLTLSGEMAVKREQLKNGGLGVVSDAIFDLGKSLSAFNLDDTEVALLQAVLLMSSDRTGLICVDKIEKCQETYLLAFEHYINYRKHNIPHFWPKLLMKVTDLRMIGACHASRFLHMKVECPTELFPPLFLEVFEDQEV

LexA-hRXRα LBD = target: T3, LexA-hRXRα LBD (human, UniProt P0A7C2 1-202; P19793 198-462, limits assumed); experiment: cell-based or functional assay
T3 sequence (looked up): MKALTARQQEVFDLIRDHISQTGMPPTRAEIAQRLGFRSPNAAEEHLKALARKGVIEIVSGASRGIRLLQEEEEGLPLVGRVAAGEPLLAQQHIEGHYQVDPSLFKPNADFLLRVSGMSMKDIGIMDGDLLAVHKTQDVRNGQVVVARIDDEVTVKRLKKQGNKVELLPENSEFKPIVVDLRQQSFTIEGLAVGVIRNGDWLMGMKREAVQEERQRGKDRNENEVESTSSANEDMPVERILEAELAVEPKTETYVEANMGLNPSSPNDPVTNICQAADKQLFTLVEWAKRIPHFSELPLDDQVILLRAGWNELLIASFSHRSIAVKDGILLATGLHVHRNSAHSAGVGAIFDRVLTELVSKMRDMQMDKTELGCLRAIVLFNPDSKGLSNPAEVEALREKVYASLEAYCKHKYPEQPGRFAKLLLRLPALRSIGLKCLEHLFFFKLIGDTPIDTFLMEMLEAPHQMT

LexA-hRARα LBD [2] = target: T4, LexA-hRARα LBD (human, UniProt P0A7C2 1-202; P10276 154-462, limits assumed); experiment: cell-based or functional assay
T4 sequence (looked up): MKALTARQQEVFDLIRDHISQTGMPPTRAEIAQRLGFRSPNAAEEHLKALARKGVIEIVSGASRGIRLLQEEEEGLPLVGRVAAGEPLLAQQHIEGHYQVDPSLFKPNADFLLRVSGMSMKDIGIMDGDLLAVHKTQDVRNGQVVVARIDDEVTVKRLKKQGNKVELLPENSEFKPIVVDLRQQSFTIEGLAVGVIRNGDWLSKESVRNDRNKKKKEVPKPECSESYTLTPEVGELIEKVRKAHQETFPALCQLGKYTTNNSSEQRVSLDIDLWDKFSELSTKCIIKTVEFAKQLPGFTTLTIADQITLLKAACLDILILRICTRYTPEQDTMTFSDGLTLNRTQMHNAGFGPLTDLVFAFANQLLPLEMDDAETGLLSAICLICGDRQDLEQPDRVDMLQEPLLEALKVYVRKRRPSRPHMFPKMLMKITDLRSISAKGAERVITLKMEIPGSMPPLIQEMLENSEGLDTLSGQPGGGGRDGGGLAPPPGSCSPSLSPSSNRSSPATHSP

LexA alone [3] = target: T1, LexA alone; experiment: cell-based or functional assay
LexA-hGR LBD [4] = target: T5, LexA-hGR LBD (human, UniProt P0A7C2 1-202; P04150 485-777, limits assumed); experiment: cell-based or functional assay
T5 sequence (looked up): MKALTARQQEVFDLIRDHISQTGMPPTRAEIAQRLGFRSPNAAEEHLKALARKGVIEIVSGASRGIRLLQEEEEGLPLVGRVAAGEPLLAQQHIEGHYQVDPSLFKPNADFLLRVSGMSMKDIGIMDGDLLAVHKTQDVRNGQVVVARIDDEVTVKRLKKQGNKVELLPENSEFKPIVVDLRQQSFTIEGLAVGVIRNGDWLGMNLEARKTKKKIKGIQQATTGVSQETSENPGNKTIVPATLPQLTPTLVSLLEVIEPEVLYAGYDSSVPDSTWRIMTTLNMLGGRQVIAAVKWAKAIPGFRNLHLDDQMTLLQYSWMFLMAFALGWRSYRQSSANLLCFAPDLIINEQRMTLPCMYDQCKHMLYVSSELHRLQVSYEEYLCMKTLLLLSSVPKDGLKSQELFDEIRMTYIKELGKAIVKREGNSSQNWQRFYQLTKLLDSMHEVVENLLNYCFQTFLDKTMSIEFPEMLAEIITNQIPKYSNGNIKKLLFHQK

LexA-hRARα LBD [5] = target: T4, LexA-hRARα LBD; experiment: yeast two-hybrid, β-galactosidase (Table 1)
Method: as §1

LexA-hGR LBD [6] = target: T5, LexA-hGR LBD; experiment: yeast two-hybrid, β-galactosidase (Table 1)
Method: as §1

full length cTRα = target: T6, full length cTRα (chicken, UniProt P04625 1-408, ^35S-labeled in the in vitro binding assay); experiment: in vitro GST binding assay, ^35S-labeled receptor, autoradiography; poor interaction without T3 (FIG. 4)
T6 construct: domain: full length; In vitro transcribed/translated in reticulocyte lysate for the GST assay; expressed from a vector in HeLa cells for the transfection studies
T6 sequence (looked up): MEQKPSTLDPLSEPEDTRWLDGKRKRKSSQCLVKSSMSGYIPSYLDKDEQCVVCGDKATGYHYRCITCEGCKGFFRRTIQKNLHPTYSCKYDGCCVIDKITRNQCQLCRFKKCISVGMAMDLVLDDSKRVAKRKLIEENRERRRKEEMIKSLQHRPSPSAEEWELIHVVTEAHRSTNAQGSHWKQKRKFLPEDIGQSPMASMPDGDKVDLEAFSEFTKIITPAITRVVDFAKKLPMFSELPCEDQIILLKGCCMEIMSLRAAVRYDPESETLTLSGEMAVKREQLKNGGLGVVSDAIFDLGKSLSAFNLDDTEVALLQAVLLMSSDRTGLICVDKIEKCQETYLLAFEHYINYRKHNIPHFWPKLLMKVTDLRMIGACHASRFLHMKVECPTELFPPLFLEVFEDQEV

full length hRXRα = target: T7, full length hRXRα (human, UniProt P19793 1-462, ^35S-labeled in the in vitro binding assay); experiment: in vitro GST binding assay, ^35S-labeled receptor, autoradiography (FIG. 4)
T7 construct: domain: full length; In vitro transcribed/translated for the GST assay; expressed from a vector in HeLa cells for the transfection studies
T7 sequence (looked up): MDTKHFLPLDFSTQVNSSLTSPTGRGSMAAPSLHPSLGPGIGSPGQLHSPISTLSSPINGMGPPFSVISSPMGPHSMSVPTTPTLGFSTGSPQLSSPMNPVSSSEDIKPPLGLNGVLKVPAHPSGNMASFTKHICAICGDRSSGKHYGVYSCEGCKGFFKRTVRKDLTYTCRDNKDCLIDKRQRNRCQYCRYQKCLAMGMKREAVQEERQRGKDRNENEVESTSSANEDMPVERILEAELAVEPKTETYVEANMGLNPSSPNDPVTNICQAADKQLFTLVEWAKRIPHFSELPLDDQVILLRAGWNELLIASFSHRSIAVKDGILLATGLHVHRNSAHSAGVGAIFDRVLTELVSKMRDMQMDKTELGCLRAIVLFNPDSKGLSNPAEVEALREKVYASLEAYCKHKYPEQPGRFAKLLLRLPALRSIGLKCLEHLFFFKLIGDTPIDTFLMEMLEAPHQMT

Binder | binding result (LexA alone [1]) | Fold Stimulation of β-galactosidase activity by ligand (T3) (LexA-cTRα LBD) [fold] | β-galactosidase activity, ligand - (yeast two-hybrid LacZ reporter) (LexA-cTRα LBD) | Fold Stimulation of β-galactosidase activity by ligand (9-cis RA) (LexA-hRXRα LBD) [fold] | β-galactosidase activity, ligand - (yeast two-hybrid LacZ reporter) (LexA-hRXRα LBD) | Fold Stimulation of β-galactosidase activity by ligand (LexA-hRARα LBD [2]) [fold] | β-galactosidase activity, ligand - (yeast two-hybrid LacZ reporter) (LexA-hRARα LBD [2]) | Fold Stimulation of β-galactosidase activity by ligand (LexA alone [3]) [fold] | Fold Stimulation of β-galactosidase activity by ligand (LexA-hGR LBD [4]) [fold] | β-galactosidase activity, ligand - (yeast two-hybrid LacZ reporter) (LexA-hGR LBD [4]) | binding result (LexA-hRARα LBD [5]) | binding result (LexA-hGR LBD [6]) | binding result (full length cTRα) | binding result (full length hRXRα)
NRIF3 fused to the B42 activation domain (other, not shown: large carriers, Yeast two-hybrid prey; B42 is placed first as for the other pJG4-5 preys printed 'B42-...'; also called NRIF3-B42; wild type NRIF3 (WT)) MPVKRSLKLDGLLEENSFDPSKITRKKSVITYSPTTGTCQMSLFASPTSSEEQKHRNGLSNEKRKKLNHPSLTESKESTTKDNDEFMMLLSKVEKLSEEIMEIMQNLSSIQALEGSRELENLIGISCASHFLKREMQKTKELMTKVNKQKLFEKSTGLPHKASRHLDSYEFLKAILN | no binding | 69 | 1.8 β-galactosidase units | 315 | 0.2 β-galactosidase units | 1 | 0.1 β-galactosidase units | 0.8 | 0.8 | 0.8 β-galactosidase units | no binding | no binding |  | 
GST-NRIF3 fusion protein (other, not shown: glutathione S-transferase (GST) of vector pGEX2T (Pharmacia)) MPVKRSLKLDGLLEENSFDPSKITRKKSVITYSPTTGTCQMSLFASPTSSEEQKHRNGLSNEKRKKLNHPSLTESKESTTKDNDEFMMLLSKVEKLSEEIMEIMQNLSSIQALEGSRELENLIGISCASHFLKREMQKTKELMTKVNKQKLFEKSTGLPHKASRHLDSYEFLKAILN |  |  |  |  |  |  |  |  |  |  |  |  | binds | binds
